Where two headings read alike, the source gives them in different places.

The chains behind the UniProt entries cited, without tags or fusion partners.
UniProt Q9Y5N1, whole entry: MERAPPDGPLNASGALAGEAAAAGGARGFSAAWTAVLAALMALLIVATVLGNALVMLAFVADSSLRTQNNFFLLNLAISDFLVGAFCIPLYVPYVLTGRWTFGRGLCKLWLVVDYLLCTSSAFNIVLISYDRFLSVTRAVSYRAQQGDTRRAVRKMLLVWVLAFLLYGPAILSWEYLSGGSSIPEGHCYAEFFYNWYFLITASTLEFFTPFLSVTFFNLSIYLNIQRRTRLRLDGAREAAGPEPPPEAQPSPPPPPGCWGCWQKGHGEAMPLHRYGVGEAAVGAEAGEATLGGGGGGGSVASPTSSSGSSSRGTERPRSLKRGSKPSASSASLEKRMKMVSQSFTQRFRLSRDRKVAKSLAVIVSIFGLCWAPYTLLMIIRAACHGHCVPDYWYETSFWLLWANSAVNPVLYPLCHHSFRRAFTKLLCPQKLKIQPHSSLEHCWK

The results in this text go back to paper PMC5500575 (Scientific Reports, 2017).

In assay [1] the target is human histamine H3 receptor (Homo sapiens, UniProt Q9Y5N1). Put plainly: IP-One (HTRF IP1 accumulation) assay, H3 receptor co-expressed with chimeric Gqi5 in tsA201 cells. Type of assay: cell-based. Particulars: for Result of second pharmacological assaying (analogues): 2 µM compound. Background: In TR-FRET formats the signal depends on donor and acceptor labels being close together.

The next assay concerns the target human H3 receptor (Homo sapiens, UniProt Q9Y5N1). Briefly: [3H]N-α-methylhistamine radioligand competition binding assay. Particulars: for Ki / Affinity (pKi): 0.3 nM [3H]N-α-methylhistamine; for Ki: Cheng-Prusoff with Kd […]; for Affinity (pKi): ± SEM. In general terms: Loss of bound radioactivity is the signal in a displacement assay; it reports binding, not function.

The mark [2] stands for this setting: antagonist mode, EC80 histamine.
[3] abbreviates: antagonist mode, in the presence of EC80 of histamine.

In the case of `Cc1ccc(C2(O)CCN(c3nc(C)nc4ccsc34)CC2)nc1`, the “Result of second pharmacological assaying (analogues)” value (shortened to “Result … (analogues)”) in assay [1] (setting [2]) is reported as “new antagonists”. In assay [1] (setting [3]), the IC50 (commonly the point on the concentration scale where inhibition reaches its midpoint) stood at 6.6 µM and the “pIC50 ± SEM” value came to 5.2 ± 0.37. Besides, on human H3 receptor, the Ki (commonly a measure of affinity in units of concentration, obtained from inhibition or displacement) is 6.07 µM and the “Affinity (pKi)” value came out at 5.22 ± 0.09. Besides, on human H3 receptor (0.3 nM radioligand, NSB defined with 10 µM histamine), the “Competition with [3H]N-α-methylhistamine binding (in words)” value is “unable to lower the binding of [^3H]N-α-methylhistamine to non-specific binding levels”.

`Cc1ccc2c(c1)c1c3n2CCN(CC(O)CNCCCN(C)C)C3CCC1` (centres unmarked): in assay [1] (antagonist mode), the “Inhibition relative to the basal level” value is reported as “inhibition below the basal level”. Further, in assay [1] (setting [2]), the “Result … (analogues)” value was “new antagonists”. Moreover, in assay [1] (setting [3]), the IC50 was found to be 2.7 µM and the “pIC50 ± SEM” value stood at 5.6 ± 0.14. Besides, the “pIC50 ± SEM, inverse agonism activity” value in assay [1] (inverse agonism, no histamine added) stood at 5.4 ± 0.068. Also, the IC50 in assay [1] (read-out: IC50, inverse agonism activity, inverse agonism, no histamine added) is 4.2 µM. Also, on human H3 receptor, the Ki was determined as 1.59 µM and the “Affinity (pKi)” value was found to be 5.80 ± 0.05.

In the case of `CCN1CCC(N2CCc3[nH]c4ccc(OC)cc4c3C2)CC1`, the “Result … (analogues)” value in assay [1] (setting [2]) is “new antagonists”. Moreover, in assay [1] (setting [3]), the IC50 came out at 5.2 µM and the “pIC50 ± SEM” value amounted to 5.3 ± 0.37. Moreover, at human H3 receptor, the Ki came to 1.59 µM and the “Affinity (pKi)” value was found to be 5.80 ± 0.14.

Take `Cc1cccc2cc(CN(C)CCN(C)C)c(N3CCNC(=O)C3)nc12`: the “Inhibition relative to the basal level” value in assay [1] (antagonist mode) is “inhibition below the basal level”. Further, in assay [1] (antagonist mode, 20 µM compound, EC80 histamine), the “Result of first pharmacological assaying (pharmacophore screening hits)” value is “antagonist hits”. For the same molecule, in assay [1] (setting [3]), the IC50 was 0.66 µM and the “pIC50 ± SEM” value is listed as 6.2 ± 0.13. Further, the Inverse agonistic activity result in assay [1] (no histamine added) is given as “not”. Also, on human H3 receptor, the Ki is 1.97 µM and the “Affinity (pKi)” value worked out at 5.71 ± 0.17.
